Reference: patent EP0961591B1, “METHOD TO ENHANCE TISSUE AC[…] RADIOLABELED COMPOUNDS” (BOARD OF SUPERVISORS OF LOUISIANA STATE UNIVERSITY AND …, priority 1997, dated 1999)

Test system: tumor in the left side of the neck

With “(^111In-DTPA-D-Phe^1)-octreotide [^111In-pentetreotide]” the “External Dose Accumulation” value (Infusion 1 (over 72 hr, 2.5 mCi/hr), 48 hr from initial infusion) was 70 mR/hr, the “External Dose Accumulation” value (Infusion 1 (over 72 hr, 2.5 mCi/hr), 72 hr from initial infusion) was 70 mR/hr and the “External Dose Accumulation” value (Infusion 2 (389.22 mCi total), 16 hr from initial infusion) was 180 mR/hr. The “External Dose Accumulation” value (Infusion 2 (389.22 mCi total), 17 hr from initial infusion) was 210 mR/hr, the “External Dose Accumulation” value (Infusion 2 (389.22 mCi total), 23 hr from initial infusion) was 180 mR/hr and the “External Dose Accumulation” value (Infusion 2 (389.22 mCi total), 42 hr from initial infusion) was 200 mR/hr. The “External Dose Accumulation” value (Infusion 2 (389.22 mCi total), 44 hr from initial infusion) was 200 mR/hr, the “External Dose Accumulation” value (Infusion 2 (389.22 mCi total), 68 hr from initial infusion) was 210 mR/hr and the “External Dose Accumulation” value (Infusion 2 (389.22 mCi total), 161 hr from initial infusion) was 66 mR/hr. For the same substance, the “External Dose Accumulation” value (Infusion 3 (346.49 mCi total), 19 hr from initial infusion) was 410 mR/hr, the “External Dose Accumulation” value (Infusion 3 (346.49 mCi total), 20 hr from initial infusion) was 410 mR/hr and the “External Dose Accumulation” value (Infusion 3 (346.49 mCi total), 164 hr from initial infusion) was 70 mR/hr.

Read-outs that look alike come from different tables or passages of the source.
